## Binding of CDR-mutated scFvs to a peptide of the spike HR2 region

Values reported by Li et al. 2023, doi:10.1038/s41467-023-39022-2 (FLAb copy).

Binding partner: SARS-CoV-2 spike HR2 peptide, sequence PDVDLGDISGINAS.

Ab-14 is the parent antibody, in scFv form: VH, then three GGGGS repeats, then VL. The light chain is unchanged in all variants.
VH: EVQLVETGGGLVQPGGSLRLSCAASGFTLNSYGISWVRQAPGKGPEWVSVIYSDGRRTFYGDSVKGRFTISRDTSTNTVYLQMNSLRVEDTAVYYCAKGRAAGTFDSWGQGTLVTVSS
VL: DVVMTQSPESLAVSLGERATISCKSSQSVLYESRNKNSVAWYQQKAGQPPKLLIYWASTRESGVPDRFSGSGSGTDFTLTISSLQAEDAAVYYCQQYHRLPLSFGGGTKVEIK

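The parent was found by panning a naive human phage display library on the peptide. Designed CDR sequences, proposed from the first random library and measured here. Group labels follow the data file (Ctrl: baseline library sampled from a position-specific scoring matrix, with some repeated check sequences; Rand: our label for a block that the file lists under HC and that is probably the random mutants of the ten best first-round binders; En: ensemble of fine-tuned language models; GP: Gaussian process model; GPLM: also part of the Gaussian process libraries; HC: hill climbing; Gen: genetic algorithm; Gibbs: Gibbs sampling; a sequence that several methods proposed may carry one label only). Affinity was read by AlphaSeq, a pooled yeast mating assay with surface-displayed partners. Binding brings cells together so that they mate, and sequencing counts the barcode pairs among the diploids. The ratio of observed to expected reads was calibrated, replicate by replicate, on BCL2-family standards whose Kd was known from biolayer interferometry. Each pool was mated in six replicate cultures.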

The parent's heavy chain CDRs are GFTLNSYGIS, VIYSDGRRTFYGDSVK, GRAAGTFDS; each variant's own CDRs replace them letter for letter. Numbers give log10(Kd / nM), so 0 is 1 nM and 3 is 1 µM. Smaller is tighter. A mean of the replicates is given; it leaves out those without a signal. "not detected" means that the variant was in the library but no mating with the target was seen in any replicate; the authors take this as a sign of poor binding, and no number exists. In the paper, a design with two or fewer of six values counts as a poor binder. The parent sequence was in this pool as ten entries: three were never detected, three once, and four in most replicates, with averages from 0.34 to 2.37. Nonspecific signal, from three strains lacking the peptide, appeared in 1% of pairings of all heavy chain designs, centred on 2.08 (5% of these signals below 0.84); values are not corrected for it. Values of this round are not directly comparable with the first-round values of the same sequences.

| # | CDR-H1 | CDR-H2 | CDR-H3 | group | mean, log10 nM | detected |
|---|---|---|---|---|---|---|
| 1 | GFELNEYGIS | VIYSDGRRTFYGDSVK | GRQAGTFDA | GP_Gen | 0.04 | 6/6 |
| 2 | GFELNSYGIS | VIYSDGRRTFYIDSVK | GKAAGTFDT | GP_Gen | 0.45 | 4/6 |
| 3 | GFDLNEYGIS | VIYADGRRTAYADSVK | GNTAGTFDV | En_Gen | -0.67 | 6/6 |
| 4 | GFHLNSYGIS | VIYSDGRRTFYGDSVK | GRAAGTFWS | Ctrl | not detected | 0/6 |
| 5 | GFDLNEYGIS | VIYADGMRTAYADSVK | GQTAGTFDQ | En_Gen | 0.37 | 3/6 |
| 6 | GFSLNEYFIS | AIYSDGERTFYGDSVK | GRLAVTFDS | Ctrl | not detected | 0/6 |
| 7 | GFDLNKYGIS | VIYSDGRRTFYGDRVK | GRTAGTFDS | GP_Gibbs | 1.51 | 5/6 |
| 8 | GFDLNSYGIS | VIYSDGRRTFYADRVK | GRQAGTFDS | GP_Gen | 0.24 | 6/6 |
| 9 | GFTLNSYGIS | VIYSDGRRCFYGDSVK | GRAMGWFDS | Ctrl | not detected | 0/6 |
| 10 | GFDLNEYGIS | VIYADGRRTFYIDSVK | GEIAGTFNL | En_HC | 0.36 | 6/6 |
| 11 | GFTLNSYGIS | VIYSDGRRTFYSDSVK | GRAAFTFDS | Ctrl | 1.56 | 2/6 |
| 12 | GFTLNWYGIS | VIYADGRRTRYGDSVK | NRAAGTGKS | Rand | not detected | 0/6 |
| 13 | GSSLDEYGIS | VIYADGQRVQYADPVK | GIQAGNVDV | En_Gibbs | not detected | 0/6 |
| 14 | GFDLDEYGIS | VIYADGKRTAYADSVK | GETAGTFDQ | En_Gen | -0.30 | 6/6 |
| 15 | GFTLNDYGIS | VIYSDGRRRFYGQSVK | GRAALTFIS | Rand | not detected | 0/6 |
| 16 | GFTLNSYGIS | VIYSDGRRTFMGDSVK | GRAAGTFDQ | Ctrl | 1.40 | 1/6 |
| 17 | GFDLNEYGIS | VIYADGRRTFYVDSVK | GVNAGTFDT | En_HC | -0.42 | 6/6 |
| 18 | GFSLNSYGIS | VIYSDGRRTAYADSVK | GRTAGTFDS | GPLM_Gen | -0.05 | 6/6 |
| 19 | GFTLNEYGIS | VIYADGRRTFYGDSVK | GRAAGTNDS | GPLM_HC | 2.33 | 5/6 |
| 20 | GFELKEYGIS | VIYADGERAGYADNVK | GEAGGKFLV | En_Gibbs | not detected | 0/6 |
| 21 | GFTLESYGIS | VIYSDGRRTFYQDSVK | GKAAGTFDS | GP_Gen | 1.41 | 5/6 |
| 22 | GFTLNEYGIS | VIYSDGRRTFYGDSVK | GRAAGYFDS | Ctrl | not detected | 0/6 |
| 23 | GFDLNEYGIS | VIYADGRRTAYIDSVK | GEIAGTFDI | En_HC | -0.10 | 6/6 |
| 24 | GFNLNEYGIS | VIYSDGRRTFYSDSVK | GRAAGTFDS | Ctrl | -0.01 | 6/6 |
| 25 | GFDLNSYGIS | VIYSDGRRTFYADSVK | GQAAGTFDN | GPLM_Gibbs | 0.66 | 6/6 |
| 26 | GFTLNSYGIS | VIYSDGRRTFYSDSVK | GREAGTFTS | GP_HC | 1.88 | 2/6 |
| 27 | GFDLNEYGIS | VIYADGMRTFYADDVK | GNVAGTFDV | En_Gen | -0.59 | 6/6 |
| 28 | GFNLNSYGIS | VIYSDGRRSFYADSVK | GREAGTFDS | GP_Gibbs | 0.43 | 6/6 |
| 29 | GFTLNDYGIS | VIYSDGKRTFYIDSVK | GRAAGTFWS | GP_HC | not detected | 0/6 |
| 30 | GFQLNSYGIS | VIYSDGRRTFYSDQVK | GQAAGTFDS | GP_Gibbs | 0.54 | 6/6 |
| 31 | GFTLNEYGIS | VIYSDGRRTFYGDSVK | GNAAGTFDS | Ctrl | 0.86 | 6/6 |
| 32 | GFDIEEYGIS | VIYADGQRTSYSNDFK | GQNGMIGNY | En_Gibbs | not detected | 0/6 |
| 33 | GFTLNEYGIS | VIYSDGRRTFYGDSVK | GRTAGTFCV | GP_HC | not detected | 0/6 |
| 34 | GFDLNEYGIS | VIYADGKRSFYADSVK | GQLAGTFDS | En_HC | -0.82 | 6/6 |
| 35 | GFQLNSYGIS | VIYSDGRRTFYGDNVK | GRTAGTFDS | GPLM_Gibbs | 1.78 | 6/6 |
| 36 | GFDLNEYGIS | VIYADGVRTYYADSVK | GEVAGTFDL | En_Gen | -0.70 | 6/6 |
| 37 | GFSIDEYGIS | VIYADGSRQVYQNKVK | GKGTGYFTT | En_Gibbs | not detected | 0/6 |
| 38 | GFNLNEYGIS | VIYADGRRTFYADSVK | GHNAGTFDV | En_HC | -0.44 | 6/6 |
| 39 | GFNLNEYGIS | VIYADGMRKFYADSVK | GNTAGTFDS | En_HC | -0.18 | 6/6 |
| 40 | GFSLNSYGIS | VIYSDGRRTFYSDSVK | GKNAGTFDS | GP_Gen | 0.38 | 6/6 |
| 41 | GFDLNSYGIS | VIYSDGRRTFYKDSVK | GRQAGTFDA | GP_Gen | 0.42 | 6/6 |
| 42 | GFDLNEYGIS | VIYADGMRTYYSDSVK | GQNAGTFDV | En_Gen | -0.39 | 6/6 |
| 43 | GFTLNSYGIS | VIYSDGRRTFYSDSVK | GVAVGTFDS | GP_HC | not detected | 0/6 |
| 44 | GFDLNEYGIS | VIYADGRRTAYSDSVK | GGNAGFFDE | En_HC | not detected | 0/6 |
| 45 | GFDLDEYGIS | VIYADGRRTFYADSVK | GNQAGTFDV | En_Gen | -0.47 | 6/6 |

Picked from the list: the 6 lowest averages where every replicate gave a value.

CDR-H1,CDR-H2,CDR-H3,group,"mean, log10 nM",detected
GFDLNEYGIS,VIYADGKRSFYADSVK,GQLAGTFDS,En_HC,-0.82,6/6
GFDLNEYGIS,VIYADGVRTYYADSVK,GEVAGTFDL,En_Gen,-0.70,6/6
GFDLNEYGIS,VIYADGRRTAYADSVK,GNTAGTFDV,En_Gen,-0.67,6/6
GFDLNEYGIS,VIYADGMRTFYADDVK,GNVAGTFDV,En_Gen,-0.59,6/6
GFDLDEYGIS,VIYADGRRTFYADSVK,GNQAGTFDV,En_Gen,-0.47,6/6
GFNLNEYGIS,VIYADGRRTFYADSVK,GHNAGTFDV,En_HC,-0.44,6/6